# Data from PubChem BioAssay AID2263 (National Center for Advancing Translational Sciences (NCATS), 2010).
# Protein sequences, listed by entry. Tags and fused reporters are not part of them.
# UniProt P14618, whole entry, looked up: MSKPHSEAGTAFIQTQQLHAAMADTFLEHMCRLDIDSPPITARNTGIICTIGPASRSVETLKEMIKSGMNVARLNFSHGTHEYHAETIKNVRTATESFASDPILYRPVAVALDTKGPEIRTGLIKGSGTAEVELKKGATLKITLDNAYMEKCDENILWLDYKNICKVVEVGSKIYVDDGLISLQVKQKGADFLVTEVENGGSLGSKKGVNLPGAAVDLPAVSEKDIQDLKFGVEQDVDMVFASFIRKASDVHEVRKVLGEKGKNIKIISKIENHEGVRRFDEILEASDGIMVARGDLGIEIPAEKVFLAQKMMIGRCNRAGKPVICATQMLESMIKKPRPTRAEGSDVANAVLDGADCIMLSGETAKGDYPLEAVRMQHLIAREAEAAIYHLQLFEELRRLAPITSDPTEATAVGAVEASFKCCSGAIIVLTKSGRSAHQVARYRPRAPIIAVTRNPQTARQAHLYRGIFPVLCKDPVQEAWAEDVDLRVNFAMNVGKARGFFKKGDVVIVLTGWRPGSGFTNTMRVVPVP
# Only a part is listed here, and it is no random draw. Records with an inconclusive call do not appear. The source made the active and inactive calls. The call rests on the fitted dose curve; in most records, active means well fitted inhibition curve with a large enough effect; inconclusive means small, poorly fitted or top-dose-only effect, or effect the other way; inactive means flat fitted curve, though single readings scatter.
# Biological target: Pyruvate kinase PKM (Homo sapiens) (UniProt P14618)
# Assay: Confirmation Concentration-Response Assay for Inhibitors of Human Muscle isoform 2 Pyruvate Kinase
# Settings: purified hPK-M2, Kinase-Glo ATP luminescence, 1 h
# From the text: NIH Chemical Genomics Center [NCGC] Matthew G. Vander Heiden, M.D., Ph.D. [Harvard Medical School, 77 Avenue Louis Pasteur, Boston, MA 02115] MLPCN Grant: 1 R03 MH085679-01 NCGC Assay Overview: Human pyruvate kinase muscle 2 (hPK-M2) enzyme was supplied as a highly purified (>95% pure) preparation from Harvard Medical School and assayed for its ability to generate ATP from ADP using phosphoenolpyruvate (PEP) as a substrate. ATP generation was detected in a coupled reaction by luciferase-mediated luminescence, an ATP-dependent process. Pyruvate kinase substrates, PEP and ADP, were present in the assay at Km and approximately 10-fold below Km respectively. The enzyme was assayed at an intermediate level of activity to screen for both inhibitors and activators.
# NCGC Assay Protocol Summary: Three uL of substrate mix (at r.t.) in assay buffer (50 mM Imidazole pH7.2, 50 mM KCl, 7 mM MgCl2, 0.01% Tween 20, 0.05% BSA) was dispensed into white solid bottom 1,536 well microtiter plates so that the final concentrations of substrates in the assay were 0.1 mM ADP and 0.5 mM PEP. 23 nL of compound were delivered by a pin tool and 1 uL of enzyme mix in assay buffer (4 degree Celsius) was added. […] Two uL of detection mix (Kinase-Glo, Promega; at 4 degree Celsius protected from light) was added and luminescence read by a ViewLux (Perkin Elmer) at 5 second exposure/plate. […]
row,SMILES,Potency
1,Nc1ncnc2c1ncn2C1OC(COP(=O)(O)O)C(O)C1O (configuration not stated),active: 6.51 µM
2,Nc1ncnc2c1ncn2[C@@H]1O[C@H](COP(=O)(O)O)[C@@H](O)[C@H]1O,active: 6.51 µM
